From ChEMBL document CHEMBL3091342, “Preparation, in vitro evaluation and molecular modelling of pyridinium-quinolinium/isoquinolinium non-symmetrical bisquaternary cholinesterase inhibitors” (Bioorg Med Chem Lett, 2013)

Protein sequences, listed by entry. Tags and fused reporters are not part of them. Residues count along the entry.
UniProt P22303, 32-614 limits assumed: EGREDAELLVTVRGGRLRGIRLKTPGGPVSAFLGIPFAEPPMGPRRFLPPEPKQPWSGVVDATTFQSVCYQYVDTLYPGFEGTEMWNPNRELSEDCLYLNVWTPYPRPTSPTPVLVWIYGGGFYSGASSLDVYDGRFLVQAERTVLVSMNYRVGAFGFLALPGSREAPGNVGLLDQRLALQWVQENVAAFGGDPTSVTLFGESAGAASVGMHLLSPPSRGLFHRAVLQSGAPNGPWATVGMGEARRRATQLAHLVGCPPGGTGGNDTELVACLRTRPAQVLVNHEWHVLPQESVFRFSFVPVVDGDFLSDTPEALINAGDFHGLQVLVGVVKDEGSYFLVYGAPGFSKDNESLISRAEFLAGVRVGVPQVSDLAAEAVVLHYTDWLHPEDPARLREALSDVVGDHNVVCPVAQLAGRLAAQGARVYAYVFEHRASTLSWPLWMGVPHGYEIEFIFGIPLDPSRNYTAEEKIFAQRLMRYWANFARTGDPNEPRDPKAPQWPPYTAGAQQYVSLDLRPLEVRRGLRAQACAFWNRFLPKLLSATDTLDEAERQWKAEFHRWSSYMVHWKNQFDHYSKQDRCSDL

Molecular target: Acetylcholinesterase (Homo sapiens, UniProt P22303)

In the case of `c1cc[n+](CCCCCCCCCC[n+]2cccc3ccccc32)cc1`, the Ki is reported as 0.4 µM.
